{
  "sequences": {"note": "Amino acid sequences for entries named in this document (tags omitted). A change or cut given only in a name is not applied to a line headed by its entry.", "UniProt P43490": "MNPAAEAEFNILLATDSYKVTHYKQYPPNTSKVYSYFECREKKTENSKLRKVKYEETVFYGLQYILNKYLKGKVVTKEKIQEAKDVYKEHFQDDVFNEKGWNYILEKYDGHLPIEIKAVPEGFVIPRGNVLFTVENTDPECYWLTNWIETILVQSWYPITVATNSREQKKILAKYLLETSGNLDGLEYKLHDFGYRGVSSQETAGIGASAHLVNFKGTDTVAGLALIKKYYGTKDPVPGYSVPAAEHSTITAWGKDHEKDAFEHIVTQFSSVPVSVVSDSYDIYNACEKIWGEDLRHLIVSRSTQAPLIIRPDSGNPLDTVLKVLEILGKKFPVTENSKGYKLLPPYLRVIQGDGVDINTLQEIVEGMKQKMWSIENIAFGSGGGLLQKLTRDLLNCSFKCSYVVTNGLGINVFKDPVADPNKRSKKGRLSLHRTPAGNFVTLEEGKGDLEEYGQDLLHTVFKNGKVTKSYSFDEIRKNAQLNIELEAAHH"},
  "source": "patent US9302989B2",
  "about": "(priority 2010, dated 2016)",
  "data": [
    {"molecular_target": "NAMPT (Homo sapiens (Human), UniProt P43490)", "details": "read-out: TR-FRET Binding IC50 (μM) probe 1", "units": {"IC50": "µM"}, "values": [
      {"smiles": "COCC(=O)N1CCN(c2ccc(NC(=O)N3Cc4ccccc4C3)cc2)CC1", "note": "[Example 507, N-{4-[4-(methoxyacetyl)piperazin-1-yl]phenyl}-1,3-dihydro-2H-isoindole-2-carboxamide]", "IC50": 0.186},
      {"smiles": "O=C(Nc1ccc(C2=CCN(C(=O)c3ccccc3)CC2)nc1)N1Cc2ccccc2C1", "note": "[Example 335, N-(1′-benzoyl-1′,2′,3′,6′-tetrahydro-2,4′-bipyridin-5-yl)-1,3-dihydro-2H-isoindole-2-carboxamide]", "IC50": 0.00669},
      {"smiles": "NC(=O)C1CCN(C(=O)c2ccc(NC(=O)N3Cc4ccccc4C3)cc2)CC1", "note": "[Example 225, N-{4-[(4-carbamoylpiperidin-1-yl)carbonyl]phenyl}-1,3-dihydro-2H-isoindole-2-carboxamide]", "IC50": 0.333},
      {"smiles": "N#Cc1ccc(N2CCN(C(=O)c3ccc(NC(=O)N4Cc5ccccc5C4)cc3)CC2)cc1", "note": "[Example 27, N-(4-{[4-(4-cyanophenyl)piperazin-1-yl]carbonyl}phenyl)-1,3-dihydro-2H-isoindole-2-carboxamide]", "IC50": 0.0138},
      {"smiles": "COCCN(C(=O)c1ccc(NC(=O)N2Cc3ccccc3C2)cc1)C(C)C", "note": "[Example 261, N-{4-[isopropyl(2-methoxyethyl)carbamoyl]phenyl}-1,3-dihydro-2H-isoindole-2-carboxamide]", "IC50": 1.63},
      {"smiles": "O=C(NCCc1cccs1)c1ccc(NC(=O)N2Cc3ccccc3C2)cc1", "note": "[Example 68, N-(4-{[2-(2-thienyl)ethyl]carbamoyl}phenyl)-1,3-dihydro-2H-isoindole-2-carboxamide]", "IC50": 0.0247},
      {"smiles": "CC(C)CCNC(=O)c1ccc(NC(=O)N2Cc3cncnc3C2)cc1", "note": "[Example 430, N-(4-{[(3-methylbutyl)amino]carbonyl}phenyl)-5,7-dihydro-6H-pyrrolo[3,4-d]pyrimidine-6-carboxamide]", "IC50": 0.191},
      {"smiles": "CC(C)(C)NC(=O)c1ccc(NC(=O)N2Cc3ccccc3C2)cc1", "note": "[Example 215, N-[4-(tert-butylcarbamoyl)phenyl]-1,3-dihydro-2H-isoindole-2-carboxamide]", "IC50": 0.267},
      {"smiles": "CC1CCC(C)N1C(=O)c1ccc(NC(=O)N2Cc3ccccc3C2)cc1", "note": "(centres unmarked) [Example 259, N-{4-[(2,5-dimethylpyrrolidin-1-yl)carbonyl]phenyl}-1,3-dihydro-2H-isoindole-2-carboxamide]", "IC50": 1.54},
      {"smiles": "N#CCNC(=O)c1ccc(NC(=O)N2Cc3ccccc3C2)cc1", "note": "[Example 180, N-{4-[(cyanomethyl)carbamoyl]phenyl}-1,3-dihydro-2H-isoindole-2-carboxamide]", "IC50": 0.131},
      {"smiles": "CC(C)OCCNC(=O)c1ccc(NC(=O)N2Cc3ccccc3C2)cc1", "note": "[Example 124, N-{4-[(2-isopropoxyethyl)carbamoyl]phenyl}-1,3-dihydro-2H-isoindole-2-carboxamide]", "IC50": 0.0517},
      {"smiles": "O=C(Nc1ccc(C(=O)N2CCCC(C(F)(F)F)C2)cc1)N1Cc2ccccc2C1", "note": "(centres unmarked) [Example 240, N-(4-{[3-(trifluoromethyl)piperidin-1-yl]carbonyl}phenyl)-1,3-dihydro-2H-isoindole-2-carboxamide]", "IC50": 0.52},
      {"smiles": "O=C(Nc1ccc(C(=O)N2CCN(c3ccncc3)CC2)cc1)N1Cc2ccccc2C1", "note": "[Example 109, N-(4-{[4-(pyridin-4-yl)piperazin-1-yl]carbonyl}phenyl)-1,3-dihydro-2H-isoindole-2-carboxamide]", "IC50": 0.0412},
      {"smiles": "CN(C)c1ccc(CCNC(=O)c2ccc(NC(=O)N3Cc4ccccc4C3)cc2)cc1", "note": "[Example 113, N-[4-({2-[4-(dimethylamino)phenyl]ethyl}carbamoyl)phenyl]-1,3-dihydro-2H-isoindole-2-carboxamide]", "IC50": 0.0445},
      {"smiles": "CC(C)CCn1cc(-c2ccc(NC(=O)N3Cc4ccccc4C3)c(F)c2)cn1", "note": "[Example 329, N-{2-fluoro-4-[1-(3-methylbutyl)-1H-pyrazol-4-yl]phenyl}-1,3-dihydro-2H-isoindole-2-carboxamide]", "IC50": 2.02},
      {"smiles": "O=C(Nc1ccc(C(=O)N2CCN(C(=O)c3ccccc3)CC2)cc1)N1Cc2ccccc2C1", "note": "[Example 425, N-{4-[(4-benzoylpiperazin-1-yl)carbonyl]phenyl}-1,3-dihydro-2H-isoindole-2-carboxamide]", "IC50": 0.0814},
      {"smiles": "O=C(Nc1ccc2nc(N3CCNCC3)[nH]c2c1)N1Cc2ccccc2C1", "note": "[Example 423, N-[2-(piperazin-1-yl)-1H-benzimidazol-6-yl]-1,3-dihydro-2H-isoindole-2-carboxamide]", "IC50": 12.5},
      {"smiles": "O=C(Nc1nc(-c2ccccc2)cs1)c1ccc(NC(=O)N2Cc3ccccc3C2)cc1", "note": "[Example 271, N-{4-[(4-phenyl-1,3-thiazol-2-yl)carbamoyl]phenyl}-1,3-dihydro-2H-isoindole-2-carboxamide]", "IC50": 11.1},
      {"smiles": "Cc1c(O)cccc1NC(=O)c1ccc(NC(=O)N2Cc3ccccc3C2)cc1", "note": "[Example 85, N-{4-[(3-hydroxy-2-methylphenyl)carbamoyl]phenyl}-1,3-dihydro-2H-isoindole-2-carboxamide]", "IC50": 0.0313},
      {"smiles": "O=C(NCc1cccs1)c1ccc(NC(=O)N2Cc3ccccc3C2)cc1", "note": "[Example 46, N-{4-[(2-thienylmethyl)carbamoyl]phenyl}-1,3-dihydro-2H-isoindole-2-carboxamide]", "IC50": 0.0183},
      {"smiles": "O=C(Nc1ccc(O)cc1)c1ccc(NC(=O)N2Cc3ccccc3C2)cc1", "note": "[Example 155, N-{4-[(4-hydroxyphenyl)carbamoyl]phenyl}-1,3-dihydro-2H-isoindole-2-carboxamide]", "IC50": 0.0834},
      {"smiles": "CC(C)CCN1Cc2ccc(NC(=O)N3Cc4ccccc4C3)cc2C1", "note": "[Example 347, N-[2-(3-methylbutyl)-2,3-dihydro-1H-isoindol-5-yl]-1,3-dihydro-2H-isoindole-2-carboxamide]", "IC50": 0.297},
      {"smiles": "O=C(CCC(=O)c1ccccc1)Nc1ccc(NC(=O)N2Cc3ccccc3C2)cc1", "note": "[Example 300, N-{4-[(4-oxo-4-phenylbutanoyl)amino]phenyl}-1,3-dihydro-2H-isoindole-2-carboxamide]", "IC50": 0.0103},
      {"smiles": "CC(C)CN(C)C(=O)c1ccc(NC(=O)N2Cc3ccccc3C2)cc1", "note": "[Example 247, N-{4-[isobutyl(methyl)carbamoyl]phenyl}-1,3-dihydro-2H-isoindole-2-carboxamide]", "IC50": 0.624},
      {"smiles": "CCCN(CC1CC1)C(=O)c1ccc(NC(=O)N2Cc3ccccc3C2)cc1", "note": "[Example 212, N-{4-[(cyclopropylmethyl)(propyl)carbamoyl]phenyl}-1,3-dihydro-2H-isoindole-2-carboxamide]", "IC50": 0.252},
      {"smiles": "C[C@@H](O)CNC(=O)c1ccc(NC(=O)N2Cc3ccccc3C2)cc1", "note": "[Example 193, N-(4-{[(2R)-2-hydroxypropyl]carbamoyl}phenyl)-1,3-dihydro-2H-isoindole-2-carboxamide]", "IC50": 0.164},
      {"smiles": "O=C(Nc1ccc(C(=O)N2CCc3ccccc32)cc1)N1Cc2ccccc2C1", "note": "[Example 187, N-[4-(2,3-dihydro-1H-indol-1-ylcarbonyl)phenyl]-1,3-dihydro-2H-isoindole-2-carboxamide]", "IC50": 0.146},
      {"smiles": "COc1ccc2[nH]cc(CCNC(=O)c3ccc(NC(=O)N4Cc5ccccc5C4)cc3)c2c1", "note": "[Example 103, N-(4-{[2-(5-methoxy-1H-indol-3-yl)ethyl]carbamoyl}phenyl)-1,3-dihydro-2H-isoindole-2-carboxamide]", "IC50": 0.0395},
      {"smiles": "COc1cccc(CNC(=O)c2ccc(NC(=O)N3Cc4ccccc4C3)cc2)c1OC", "note": "[Example 13, N-{4-[(2,3-dimethoxybenzyl)carbamoyl]phenyl}-1,3-dihydro-2H-isoindole-2-carboxamide]", "IC50": 0.00807},
      {"smiles": "O=C(Nc1ccc(C(=O)N2CCc3c([nH]c4ccccc34)C2)cc1)N1Cc2ccccc2C1", "note": "[Example 214, N-[4-(1,3,4,9-tetrahydro-2H-beta-carbolin-2-ylcarbonyl)phenyl]-1,3-dihydro-2H-isoindole-2-carboxamide]", "IC50": 0.265},
      {"smiles": "O=C(NCc1cccc(OC(F)(F)F)c1)c1ccc(NC(=O)N2Cc3ccccc3C2)cc1", "note": "[Example 114, N-(4-{[3-(trifluoromethoxy)benzyl]carbamoyl}phenyl)-1,3-dihydro-2H-isoindole-2-carboxamide]", "IC50": 0.0461},
      {"smiles": "O=C(Nc1ccc(C2CCNCC2)cc1)N1Cc2ccccc2C1", "note": "[Example 403, N-[4-(piperidin-4-yl)phenyl]-1,3-dihydro-2H-isoindole-2-carboxamide]", "IC50": 0.606},
      {"smiles": "O=C(Nc1ccc(N2CCN(C(=O)c3cscn3)CC2)cc1)N1Cc2ccccc2C1", "note": "[Example 540, N-{4-[4-(1,3-thiazol-4-ylcarbonyl)piperazin-1-yl]phenyl}-1,3-dihydro-2H-isoindole-2-carboxamide]", "IC50": 0.137},
      {"smiles": "O=C(NCCCCO)c1ccc(NC(=O)N2Cc3ccccc3C2)cc1", "note": "[Example 150, N-{4-[(4-hydroxybutyl)carbamoyl]phenyl}-1,3-dihydro-2H-isoindole-2-carboxamide]", "IC50": 0.0728},
      {"smiles": "O=C(NCCCc1ccccc1)N1Cc2ccccc2C1", "note": "[Example 357, N-(3-phenylpropyl)-1,3-dihydro-2H-isoindole-2-carboxamide]", "IC50": 9.88},
      {"smiles": "COc1cc2c(cc1OC)CN(C(=O)Nc1ccc(C(=O)NCCCc3ccccc3)cc1)C2", "note": "[Example 268, 5,6-dimethoxy-N-{4-[(3-phenylpropyl)carbamoyl]phenyl}-1,3-dihydro-2H-isoindole-2-carboxamide]", "IC50": 2.85},
      {"smiles": "CCCC(=O)N1Cc2ccc(NC(=O)N3Cc4ccccc4C3)cc2C1", "note": "[Example 344, N-(2-butyryl-2,3-dihydro-1H-isoindol-5-yl)-1,3-dihydro-2H-isoindole-2-carboxamide]", "IC50": 0.216},
      {"smiles": "O=C(NC1CCC1)c1ccc(NC(=O)N2Cc3ccccc3C2)cc1", "note": "[Example 232, N-[4-(cyclobutylcarbamoyl)phenyl]-1,3-dihydro-2H-isoindole-2-carboxamide]", "IC50": 0.42},
      {"smiles": "CC(C)S(=O)(=O)N1CCN(c2ccc(NC(=O)N3Cc4ccccc4C3)cc2)CC1", "note": "[Example 337, N-{4-[4-(isopropylsulfonyl)piperazin-1-yl]phenyl}-1,3-dihydro-2H-isoindole-2-carboxamide]", "IC50": 0.0261},
      {"smiles": "O=C(NCc1ccc(Cl)cc1)c1ccc(NC(=O)N2Cc3ccncc3C2)cc1", "note": "[Example 286, N-{4-[(4-chlorobenzyl)carbamoyl]phenyl}-1,3-dihydro-2H-pyrrolo[3,4-c]pyridine-2-carboxamide]", "IC50": 0.00206},
      {"smiles": "O=C(NCCc1ccccn1)c1ccc(NC(=O)N2Cc3ccccc3C2)cc1", "note": "[Example 179, N-(4-{[2-(pyridin-2-yl)ethyl]carbamoyl}phenyl)-1,3-dihydro-2H-isoindole-2-carboxamide]", "IC50": 0.128}
    ]}
  ]
}
